# Assay results from patent US12098118B2 (Regents of the University of Minnesota, priority 2018, dated 2024).
# Experiment: cardiovascular measures / heart rate after i.v. injection
# Conditions: i.v. injection (FIG. 4)
row,Structure (SMILES),impact on heart rate
1,"CC(=O)NCCCCN/C(=N\C(=O)OC(C)(C)C)NC(=O)OC(C)(C)C [J-4, 4-(2,3-bis(tert-butyloxycarbonyl)guanidino)butylacetamide]",neither agmatine or J-4 had any effect
2,"N=C(N)NCCCCN [agmatine, 1-(4-aminobutyl)guanidine, reference compound]",neither agmatine or J-4 had any effect
3,"Clc1cccc(Cl)c1N=C1NCCN1 [clonidine, reference compound]",reduced heart rate for 60 minutes post-injection
